Measured values from PubChem BioAssay AID624172 (National Center for Advancing Translational Sciences (NCATS), 2012).
This is a selection; strong and weak results do not stand in their true shares. Active and inactive are the calls of the source. The call rests on the fitted dose curve; in most records, active means well fitted activation curve with a large enough effect; inconclusive means small, poorly fitted or top-dose-only effect; inactive means no such curve, though single readings can be large or run the other way.

Chains of the proteins cited; added tags and fusions are not shown.
UniProt P43220, whole entry, looked up: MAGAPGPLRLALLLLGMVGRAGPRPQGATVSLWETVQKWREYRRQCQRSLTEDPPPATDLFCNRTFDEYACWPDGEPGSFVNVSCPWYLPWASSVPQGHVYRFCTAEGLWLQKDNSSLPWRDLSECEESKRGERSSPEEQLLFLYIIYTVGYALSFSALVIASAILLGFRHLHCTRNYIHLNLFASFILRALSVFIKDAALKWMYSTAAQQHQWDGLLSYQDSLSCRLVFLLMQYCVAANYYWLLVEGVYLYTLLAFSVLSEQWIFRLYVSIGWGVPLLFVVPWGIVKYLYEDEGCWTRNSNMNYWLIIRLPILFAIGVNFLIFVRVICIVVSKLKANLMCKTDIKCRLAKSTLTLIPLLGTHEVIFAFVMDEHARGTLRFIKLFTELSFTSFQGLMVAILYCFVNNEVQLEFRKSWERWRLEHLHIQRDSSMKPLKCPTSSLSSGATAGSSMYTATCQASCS

Molecular target: Glucagon-like peptide 1 receptor (Homo sapiens) (UniProt P43220)
Experiment: qHTS of GLP-1 Receptor Agonists; further: % of control where 0% means no effect
Conditions: HEK293 GLP-1R CRE-luciferase, luminescence, 4-6 h, cells express a hypersensitive GLP-1R form; at 45.6 µM (top of the series) unless noted
Description: The overall goal of this project was to develop a novel assay for discovering small molecule ligands for class B1 G protein-coupled receptors (GPCRs). Very few agonists (or inverse agonists) with generally weak activity for this entire group of physiologically important receptors are known to date. To establish proof-of-principle that this critical bottleneck can be overcome with a suitable screening approach, our studies focused on the class B1 receptor for glucagon-like peptide-1 (GLP-1R), a potential therapeutic target for diabetes and neurodegenerative disease.
The assay was developed in a "mix and measure" format using a cell-based functional readout. Toward this goal, stably transfected HEK293 cell clones were established that co-express (i) a cAMP-responsive luciferase reporter gene, and (ii) GLP-1Rs that upon ligand interaction either stimulate (agonists) or inhibit (inverse agonists) luciferase activity. In different cell lines to be used for screening, expressed GLP-1Rs are specifically optimized for high sensitivity detection of either weak agonists (hypersensitive receptor) or inverse agonists (constitutively active receptor mutant). In addition, control cell lines were developed that express either the cAMP-responsive reporter gene without recombinant GLP-1Rs (enabling initial exclusion of GLP-1R independent effects of candidate probes), or the reporter gene together with wild type GLP-1Rs (for confirmation of probe activity at this receptor), or the reporter gene in combination with the constitutively active orphan receptor GPR119 (enabling initial exclusion of GLP-1R independent inhibitory effects of candidate inverse agonists).
To that end, this assay was optimized for 1536-well format and screened against the MLSMR.
NIH Molecular Libraries Probe Production Network [MLPCN]
NIH Chemical Genomics Center [NCGC]
PI Name: Martin Beinborn, Tufts Medical Center
In a white solid 1536-well plate, 6 uL of cells are dispensed in DMEM without phenol red, 10% Nu serum, and 1% pen-strep medium. The plates are then incubated for 12 hours at 37 deg C at 5% CO2 before 23 nL of compounds are added. After a 4-6 hr incubation at37 deg C and 5% CO2, 3 uL of detection reagent are added and after a 12 min incubation at RT, a luminescent read is obtained on the ViewLux.

**Q.** With `CCN(N=Nc1nonc1N)c1nonc1N` as the molecule, how does the activation read?
**A.** Its activation is inactive: 1.05%.

**Q.** With `Nc1cccc2ccc([As](=O)(O)O)cc12` as the molecule, how does the activation read?
**A.** Its activation is inactive: -0.531%.

**Q.** Which activation does the source give for `CCCC1OP(N)(=O)OCC1CC` (stereo not given) here?
**A.** The activation was inactive: 1.16%.

**Q.** For `O=C(O)c1ccccc1[As](=O)(O)O`, which activation is on record?
**A.** The activation was inactive: 5.95%.

**Q.** How did the activation turn out when `CC(=O)Nc1ccc([As](=O)(O)O)cc1` was run?
**A.** Its activation is inactive: 0.494%.

**Q.** For `CN(C)P(=O)(N(C)C)n1c(Nc2ccccc2)nnc1-c1ccccc1`, which activation is on record?
**A.** The activation was inactive: 2.71%.

**Q.** `O=P(Nc1nc2ccc(Cl)cc2s1)(c1ccccc1)c1ccccc1` was tested. Which activation did it give?
**A.** The activation was inactive: 2.25%.

**Q.** With `CN(C(=O)Cc1ccc(Cl)c(Cl)c1)[C@H]1CCCC[C@@H]1N1CCCC1` as the molecule, how does the activation read?
**A.** Its activation is inactive: 12.3%.

**Q.** For `Cc1ccc(NP(=O)(Oc2ccccc2F)Oc2ccccc2F)nc1`, which activation is on record?
**A.** Its activation is inactive: 0.423%.

**Q.** `CCOP(=O)(Nc1ccccc1)OCC` was tested. Which activation did it give?
**A.** The activation was inactive: 3.47%.

**Q.** How did the activation turn out when `Cc1cc(SC(NC(=O)c2ccc(F)cc2)C(Cl)(Cl)Cl)ncn1` (stereo not given) was run?
**A.** Its activation is inactive: -13%.

**Q.** How did the activation turn out when `CC(C)CC(=O)NC(Sc1ccc(Cl)cc1)C(Cl)(Cl)Cl` (stereo not given) was run?
**A.** Its activation is inactive: -4.98%.

**Q.** For `Nc1cc(N)c2nonc2c1[N+](=O)[O-]`, which activation is on record?
**A.** The activation was inactive: -4.69%.

**Q.** `O=C(NC(Sc1ccncn1)C(Cl)(Cl)Cl)c1ccccc1` (stereo not given) was tested. Which activation did it give?
**A.** The activation was inactive: -6.22%.

**Q.** For `Oc1ccccc1CNc1ccccn1`, which activation is on record?
**A.** The activation was inactive: 11.4%.

**Q.** How did the activation turn out when `O=[N+]([O-])C1C(O)C(O)C([N+](=O)[O-])C(O)C1O` (stereo not given) was run?
**A.** The activation was inactive: -1.7%.

**Q.** How did the activation turn out when `NC(=O)c1cc([N+](=O)[O-])cc([N+](=O)[O-])c1N` was run?
**A.** Its activation is inactive: -7.16%.

**Q.** Which activation does the source give for `Cc1ccc(N/C(=N/P(=O)(N2CCOCC2)N2CCOCC2)N2CCOCC2)cc1` here?
**A.** The activation was inactive: -1.04%.

**Q.** Which activation does the source give for `CN(C(=O)Cc1ccc(Cl)c(Cl)c1)[C@H]1CCCC[C@H]1N1CCCC1` here?
**A.** The activation was inactive: 4.33%.

**Q.** With `Cc1ccc(OP(=O)(Nc2nccs2)Oc2ccc(C)cc2)cc1` as the molecule, how does the activation read?
**A.** Its activation is inactive: -0.788%.

**Q.** How did the activation turn out when `COc1ccccc1OP(=O)(Nc1ccc(C)cn1)Oc1ccccc1OC` was run?
**A.** Its activation is inactive: 11.4%.

**Q.** With `Clc1ccc(Cl)c(NC2=NCC(CBr)S2)c1` (stereo not given) as the molecule, how does the activation read?
**A.** The activation was inactive: -2.21%.

**Q.** With `CN1CCCC(OC(=O)C(c2ccccc2)c2ccccc2)C1` (stereo not given) as the molecule, how does the activation read?
**A.** The activation was inactive: 4.29%.

**Q.** For `C[N+]1=C2C=CC=CC=C2SC12C([N+](=O)[O-])=CC([N+](=O)[O-])=C[C-]2[N+](=O)[O-]` (stereo not given), which activation is on record?
**A.** Its activation is inactive: -9.05%.

**Q.** How did the activation turn out when `Nc1ccc([As](=O)(O)c2ccc(N)cc2)cc1` was run?
**A.** The activation was inactive: -0.278%.

**Q.** Which activation does the source give for `CCN(/C(=N/P(=O)(N1CCOCC1)N1CCOCC1)N1CCOCC1)c1ccc(OC)cc1` here?
**A.** The activation was inactive: 0.774%.

**Q.** Which activation does the source give for `CN(C)C(=O)OCCc1n(C)cc[n+]1C` here?
**A.** The activation was inactive: 0.281%.

**Q.** `CC(C)=N/N=C(\N)N[N+](=O)[O-]` was tested. Which activation did it give?
**A.** The activation was inactive: 6.59%.

**Q.** For `CC(C)c1nc(Nc2ccccc2)n(P(=O)(N(C)C)N(C)C)n1`, which activation is on record?
**A.** The activation was inactive: -1.8%.

**Q.** Which activation does the source give for `c1cc(-c2nn[nH]n2)ccc1-c1nn[nH]n1` here?
**A.** The activation was inactive: 0.66%.

**Q.** Which activation does the source give for `CC1CCN(C(=O)Oc2c(Cl)cc(Cl)c3cccnc23)CC1` here?
**A.** The activation was inactive: 15.1%.

**Q.** Which activation does the source give for `COc1ccc(C2=NCC(CBr)S2)cc1` (stereo not given) here?
**A.** The activation was inactive: 0.041%.

**Q.** How did the activation turn out when `CC(=O)N1C2C3N(C(C)=O)C1C1N(C(C)=O)C(C(N1C(C)=O)N3C(C)=O)N2C(C)=O` was run?
**A.** The activation was inactive: -2.02%.

**Q.** For `O=[N+]([O-])c1cccc2n[nH]nc12`, which activation is on record?
**A.** Its activation is inactive: 2.22%.

**Q.** Which activation does the source give for `O=[N+]([O-])c1cc([N+](=O)[O-])c(CCNc2ccccc2)c([N+](=O)[O-])c1` here?
**A.** The activation was inactive: 7.1%.

**Q.** With `CCc1nc2c(n1)c1c(non1O)c1c2no[n+]1[O-]` as the molecule, how does the activation read?
**A.** Its activation is inactive: 3.43%.

**Q.** With `Cc1ccc(NP(=O)(Oc2ccccc2)Oc2ccccc2)nc1` as the molecule, how does the activation read?
**A.** The activation was inactive: 8.88%.

**Q.** How did the activation turn out when `CC(C)(C)C(=O)NC(Sc1ccncn1)C(Cl)(Cl)Cl` (stereo not given) was run?
**A.** The activation was inactive: -5.1%.

**Q.** For `O=[N+]([O-])c1ncn(CCn2ncnc2[N+](=O)[O-])n1`, which activation is on record?
**A.** Its activation is inactive: -5.66%.

**Q.** How did the activation turn out when `O=[N+]([O-])c1cccc(NC2=NCC(CBr)S2)c1` (stereo not given) was run?
**A.** Its activation is inactive: -3%.

**Q.** Which activation does the source give for `COC(=O)C1(C)COP(=O)(Nc2ccccc2)OC1` (stereo not given) here?
**A.** The activation was inactive: -2.19%.

**Q.** How did the activation turn out when `O=C(O)CNc1ccc([As](=O)(O)O)cc1` was run?
**A.** The activation was inactive: -2.59%.

**Q.** `O=P1(N(CCCl)CCCl)OCCCS1` (stereo not given) was tested. Which activation did it give?
**A.** The activation was inactive: -0.362%.

**Q.** For `O=C(Nc1cc([As](=O)(O)O)ccc1O)c1ccccc1`, which activation is on record?
**A.** Its activation is inactive: -0.119%.

**Q.** For `CC(=O)NC(SC(=S)N(C)C)C(Cl)(Cl)Cl` (stereo not given), which activation is on record?
**A.** The activation was inactive: -1.5%.

**Q.** `O=[N+]([O-])c1ncn(CCn2cnc([N+](=O)[O-])n2)n1` was tested. Which activation did it give?
**A.** Its activation is inactive: 1.6%.

**Q.** How did the activation turn out when `O=[N+]([O-])c1ccc(O)c(/C=N/Nc2ccc([N+](=O)[O-])cc2[N+](=O)[O-])c1` was run?
**A.** Its activation is inactive: 7.69%.

**Q.** With `O=[As](O)(c1ccccc1)c1ccc(O)cc1` as the molecule, how does the activation read?
**A.** Its activation is inactive: 7.29%.

**Q.** With `Nc1ccc([As](=O)(O)c2ccc([N+](=O)[O-])cc2)cc1` as the molecule, how does the activation read?
**A.** Its activation is inactive: -0.439%.

**Q.** For `C(Cc1nn[nH]n1)Cc1nn[nH]n1`, which activation is on record?
**A.** Its activation is inactive: -12.7%.

**Q.** For `O=C(OC1CN2CCC1CC2)c1cccc(Cl)c1` (stereo not given), which activation is on record?
**A.** Its activation is inactive: -2.01%.

**Q.** How did the activation turn out when `Nc1ccc(CCCCOc2ccccc2)cc1` was run?
**A.** The activation was inactive: 21.1%.

**Q.** Which activation does the source give for `COc1ccc(N)c([N+](=O)[O-])c1[N+](=O)[O-]` here?
**A.** The activation was inactive: 12.5%.

**Q.** With `CN(C)C1(CNC(=O)c2ccc(Cl)c(S(N)(=O)=O)c2)CCCCC1` as the molecule, how does the activation read?
**A.** Its activation is inactive: 3.52%.

**Q.** How did the activation turn out when `O=P(Nc1ccccn1)(c1ccc(Br)cc1)c1ccc(Br)cc1` was run?
**A.** The activation was inactive: 3.69%.

**Q.** With `C[C@H]1OP(=O)(Oc2ccccc2)[C@H](O)[C@H](O)[C@H]1N=[N+]=[N-]` (stereo not given in full) as the molecule, how does the activation read?
**A.** Its activation is inactive: 4.57%.

**Q.** With `O=P(Nc1nc2ccccc2s1)(c1ccccc1)c1ccccc1` as the molecule, how does the activation read?
**A.** The activation was inactive: 10.4%.

**Q.** For `CN(C(=O)Cc1ccccc1)[C@H]1CC[C@@]2(CCCO2)C[C@@H]1N1CCCC1`, which activation is on record?
**A.** The activation was inactive: 6.3%.

**Q.** How did the activation turn out when `Cc1cc([N+](=O)[O-])cc([N+](=O)[O-])c1O` was run?
**A.** The activation was inactive: -1.23% [at 96 µM].

**Q.** `O=P(Nc1nccs1)(c1ccccc1)c1ccccc1` was tested. Which activation did it give?
**A.** The activation was inactive: 0.45%.

**Q.** How did the activation turn out when `CC(C)C(=O)NC(Sc1ccccc1)C(Cl)(Cl)Cl` (stereo not given) was run?
**A.** Its activation is inactive: 1.44%.

**Q.** How did the activation turn out when `c1nnnn1CCn1cnnn1` was run?
**A.** Its activation is inactive: -0.4%.

**Q.** Which activation does the source give for `COC(=O)C1(C)COP(=O)(NCc2ccccc2)OC1` (stereo not given) here?
**A.** Its activation is inactive: -8.46%.

**Q.** With `N#C/C(=C\c1ccc(N(CCBr)CCBr)cc1)C(N)=O` as the molecule, how does the activation read?
**A.** The activation was inactive: 13.9%.

**Q.** `CC(=O)c1ccc(N2CC2c2ccncc2)cc1` (stereo not given) was tested. Which activation did it give?
**A.** The activation was inactive: 5.56%.
